Assay results: patent EP1202975B1, “SUBSTITUTED POLYCYCLIC ARYL AND HETEROARYL PYRAZINONES USEFUL FOR SELECTIVE INHIBITION OF THE COAGULATION CASCADE” (Pharmacia Corporation, priority 1999, dated 2000)

Sequences of proteins named here, by UniProt entry; tags and fusion partners are left off. Residues count along the entry.
UniProt P00761, 9-231: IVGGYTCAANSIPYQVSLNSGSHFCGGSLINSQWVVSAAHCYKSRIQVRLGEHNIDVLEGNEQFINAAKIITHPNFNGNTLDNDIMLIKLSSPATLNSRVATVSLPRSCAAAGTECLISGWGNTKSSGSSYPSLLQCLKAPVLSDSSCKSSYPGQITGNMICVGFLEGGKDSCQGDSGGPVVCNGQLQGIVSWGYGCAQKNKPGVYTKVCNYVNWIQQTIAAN

Experiments:
[1] = molecular target: T1, Trypsin (type IX from porcine pancreas) (Sus scrofa, UniProt P00761); assay: biochemical
[2] = molecular target: T1, Trypsin (type IX from porcine pancreas); conditions: read-out: IC50 or % Inhibition Trpysin II (30 µM); cells given as a plain number (IC50)

IC50 [1] | IC50 [2] | SMILES
1000 nM | – | N=C(N)c1ccc(CNC(=O)Cn2c(Cc3ccccc3)cnc(NCCc3ccccc3)c2=O)cc1 [Example 2]
400 nM | – | N=C(N)NCCC[C@H](NC(=O)Cn1c(-c2ccccc2)c(Cl)nc(NCCc2ccccc2)c1=O)C(=O)c1nccs1 [Example 3]
400 nM | – | N=C(N)NCCC[C@H](NC(=O)Cn1c(-c2ccccc2)cnc(NCCc2ccccc2)c1=O)C(=O)c1nccs1 [Example 6]
400 nM | – | N=C(N)NCCC[C@H](NC(=O)Cn1c(Cc2ccccc2)cnc(NCCc2ccccc2)c1=O)C(=O)c1nccs1 [Example 7]
400 nM | – | N=C(N)NCCC[C@H](NC(=O)Cn1c(CCc2ccccc2)cnc(NCCc2ccccc2)c1=O)C(=O)c1nccs1 [Example 8]
1000 nM | – | N=C(N)NCCCNC(=O)Cn1c(-c2ccccc2)cnc(NCCc2ccccc2)c1=O [Example 11]
1000 nM | – | N=C(N)NCCCCNC(=O)Cn1c(-c2ccccc2)cnc(NCCc2ccccc2)c1=O [Example 12]
14000 nM | – | N=C(N)NCCCCCNC(=O)Cn1c(-c2ccccc2)cnc(NCCc2ccccc2)c1=O [Example 13]
300 nM | – | COc1ccc(-c2cnc(NCCc3ccccc3)c(=O)n2CC(=O)NCCCCNC(=N)N)cc1 [Example 14]
1000 nM | – | N=C(N)NCCCCNC(=O)Cn1c(-c2ccc(-c3ccccc3)cc2)cnc(NCCc2ccccc2)c1=O [Example 15]
1000 nM | – | N=C(N)NCCCCNC(=O)Cn1c(-c2ccc3c(c2)OCO3)cnc(NCCc2ccccc2)c1=O [Example 16]
240 nM | – | CC(C)Nc1nc(Cl)c(-c2cccc(C#N)c2)n(CC(=O)NCc2ccc(C(=N)N)cc2)c1=O [Example 17]
1130 nM | – | N=C(N)c1ccc(CNC(=O)Cn2c(-c3ccccc3)c(Cl)nc(CN)c2=O)cc1 [Example 18]
540 nM | – | N=C(N)c1ccc(CNC(=O)Cn2c(-c3ccccc3)c(Cl)nc(NCCN)c2=O)cc1 [Example 44]
250 nM | – | N=C(N)c1ccc(CNC(=O)Cn2c(-c3ccccc3)c(Cl)nc(NCCCN)c2=O)cc1 [Example 45]
230 nM | – | N=C(N)c1ccc(CNC(=O)Cn2c(-c3ccccc3)c(Cl)nc(NCCCCN)c2=O)cc1 [Example 46]
200 nM | – | N=C(N)NCCCNc1nc(Cl)c(-c2ccccc2)n(CC(=O)NCc2ccc(C(=N)N)cc2)c1=O [Example 47]
380 nM | – | N=C(N)NCCNc1nc(Cl)c(-c2ccccc2)n(CC(=O)NCc2ccc(C(=N)N)cc2)c1=O [Example 48]
190 nM | – | N=C(N)NCCCCNc1nc(Cl)c(-c2ccccc2)n(CC(=O)NCc2ccc(C(=N)N)cc2)c1=O [Example 49]
240 nM | – | N=C(N)CCNc1nc(Cl)c(-c2ccccc2)n(CC(=O)NCc2ccc(C(=N)N)cc2)c1=O [Example 50]
170 nM | – | N=C(N)c1ccc(CNC(=O)Cn2c(-c3ccccc3)c(Cl)nc(NCc3ccc(C(=N)N)cc3)c2=O)cc1 [Example 51]
150 nM | – | N=C(N)c1ccc(CNC(=O)Cn2c(-c3ccccc3)c(Cl)nc(NCc3cccc(C(=N)N)c3)c2=O)cc1 [Example 52]
150 nM | – | N#CCCNc1nc(Cl)c(-c2ccccc2)n(CC(=O)NCc2ccc(C(=N)N)cc2)c1=O [Example 53]

IC50 [1] | IC50 [2] | SMILES
180 nM | – | CC(C)Nc1nc(Cl)c(-c2cccc(N)c2)n(CC(=O)NCc2ccc(C(=N)N)s2)c1=O [Example 55]
450 nM | – | CN(C)c1cccc(-c2c(Cl)nc(NCCc3ccccc3)c(=O)n2CC(=O)NCc2ccc(C(=N)N)cc2)c1 [Example 103]
700 nM | – | CNc1cccc(-c2c(Cl)nc(NC(C)C)c(=O)n2CC(=O)NCc2ccc(C(=N)N)cc2)c1 [Example 104]
490 nM | – | N=C(N)c1ccc(CNC(=O)Cn2c(-c3ccccc3)cnc(NS(=O)(=O)c3ccccc3)c2=O)cc1 [Example 105]
250 nM | – | N=C(N)c1ccc(CNC(=O)Cn2c(-c3ccccc3)cnc(NC(=O)Nc3ccccc3)c2=O)cc1 [Example 106]
240 nM | – | N=C(N)c1ccc(CNC(=O)Cn2c(-c3ccccc3)cnc(NC(=O)Nc3cccc(N)c3)c2=O)cc1 [Example 107]
500 nM | – | N=C(N)c1ccc(CNC(=O)Cn2c(-c3ccccc3)cnc(NC(=O)Nc3cc(Cl)cc(Cl)c3)c2=O)cc1 [Example 108]
220 nM | – | CC(C)NC(=O)Nc1ncc(-c2ccccc2)n(CC(=O)NCc2ccc(C(=N)N)cc2)c1=O [Example 109]
– | 230 nM | Cc1ccccc1-c1c(Cl)nc(NCCc2ccccc2)c(=O)n1CC(=O)NCc1ccc(C(=N)N)cc1 [compound 78]
– | 160 nM | N=C(N)c1ccc(CNC(=O)Cn2c(-c3cccc4ccccc34)c(Cl)nc(NCCc3ccccc3)c2=O)cc1 [compound 80]
– | 220 nM | Cc1cccc(-c2c(Cl)nc(NCCc3ccccc3)c(=O)n2CC(=O)NCc2ccc(C(=N)N)cc2)c1 [compound 81]
– | 170 nM | N=C(N)c1ccc(CNC(=O)Cn2c(-c3ccc4ccccc4c3)c(Cl)nc(NCCc3ccccc3)c2=O)cc1 [compound 82]
– | 260 nM | N=C(N)c1ccc(CNC(=O)Cn2c(-c3cccc(N)c3)c(Cl)nc(NCCc3cccc(Cl)c3)c2=O)cc1 [compound 87]
– | 270 nM | N=C(N)c1ccc(CNC(=O)Cn2c(-c3cccc(N)c3)c(Cl)nc(NCc3ccccc3)c2=O)cc1 [compound 88]
– | 100 nM | N=C(N)c1ccc(CNC(=O)Cn2c(-c3cccc(N)c3)c(Cl)nc(NC3CCC3)c2=O)cc1 [compound 90]
– | 500 nM | N=C(N)NCCCC(NC(=O)Cn1c(-c2cccc(N)c2)c(Cl)nc(NCc2ccccc2)c1=O)C(=O)c1nccs1 (stereo not shown) [compound 91]
– | 250 nM | N=C(N)c1ccc(CNC(=O)Cn2c(-c3cccc(N)c3)cnc(NC3CCC3)c2=O)cc1 [compound 92]
– | 160 nM | CC(C)(C)Nc1nc(Cl)c(-c2cccc(N)c2)n(CC(=O)NCc2ccc(C(=N)N)cc2)c1=O [compound 93]
– | 240 nM | CN(C)Nc1nc(Cl)c(-c2cccc(N)c2)n(CC(=O)NCc2ccc(C(=N)N)cc2)c1=O [compound 94]
– | 210 nM | CNc1cccc(-c2c(Cl)nc(NCCc3ccccc3)c(=O)n2CC(=O)NCc2ccc(C(=N)N)cc2)c1 [compound 95]
– | 120 nM | CNc1cccc(-c2c(Cl)nc(NC(C)C)c(=O)n2CC(=O)NCc2ccc(C(=N)N)cc2)c1 [compound 96]
– | 240 nM | Cc1c(N)cccc1-c1c(Cl)nc(NC(C)C)c(=O)n1CC(=O)NCc1ccc(C(=N)N)cc1 [compound 97]
– | 70 nM | Cc1c(N)cccc1-c1cnc(NC(C)C)c(=O)n1CC(=O)NCc1ccc(C(=N)N)cc1 [compound 98]

Where two headings read alike, the source gives them in different places.
